# The entries are a selection whose mix differs from that of the whole data set. Active and inactive are the calls of the source.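 The calls were made as follows: active = at 10 µM dose, activation of 40% or more, normalized to positive control; inactive = the rest.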
# Test: activators of apoptotic CHOP UPR arm, primary screen, cell-based, CHO-CHOP luciferase reporter, luminescence, uHTS (AID 449763);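 also: 100% = tunicamycin at 10 µg/mL and 0% = DMSO alone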
# Details: at 10 µM, hits give high values, percent of tunicamycin response over DMSO baseline
# How it was run: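 Test system: CHO CHOP reporter cells. Input: 500 CHO-CHOP cells per well. Medium: F12 with 10% FBS. Technique: luciferase luminescence. Measure: percent activation relative to tunicamycin control. Dosing: 10 µM compound, 0.5% DMSO. Timing: 16-18 h cell attachment, then 6 h compound exposure, 37 °C.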
row,Compound,activation
1,CC(C)CC(=O)NC(Sc1ccc(Cl)cc1)C(Cl)(Cl)Cl (stereo not given),inactive: -2.29%
2,Nc1cc(N)c2nonc2c1[N+](=O)[O-],inactive: 0.66%
3,Oc1ccccc1CNc1ccccn1,inactive: 0.499%
4,Cc1c2non([O-])c-2c(C)[n+](=O)[n+]1[O-],inactive: 26.5%
5,O=C(NC(Sc1ccncn1)C(Cl)(Cl)Cl)c1ccccc1 (stereo not given),inactive: 2.05%
6,COc1ccccc1OP(=O)(Nc1ccc(C)cn1)Oc1ccccc1OC,inactive: -0.0321%
7,Cc1ccc(OP(=O)(Nc2nccs2)Oc2ccc(C)cc2)cc1,inactive: -0.299%
8,Clc1ccc(Cl)c(NC2=NCC(CBr)S2)c1 (stereo not given),inactive: 1.35%
9,CN1CCCC(OC(=O)C(c2ccccc2)c2ccccc2)C1 (stereo not given),inactive: 1.03%
10,NC(=O)c1cc([N+](=O)[O-])cc([N+](=O)[O-])c1N,inactive: 0.949%
11,CN(C(=O)Cc1ccc(Cl)c(Cl)c1)[C@H]1CCCC[C@H]1N1CCCC1,inactive: -1.42%
12,Cc1ccc(N/C(=N/P(=O)(N2CCOCC2)N2CCOCC2)N2CCOCC2)cc1,inactive: -0.416%
13,CCN(N=Nc1nonc1N)c1nonc1N,inactive: 3.63%
14,O=[N+]([O-])c1cc([N+](=O)[O-])c(CCN2CCOCC2)c([N+](=O)[O-])c1,inactive: 3.41%
15,CCOP(=O)(Nc1ccccc1)OCC,inactive: -3%
16,Cc1cc(SC(NC(=O)c2ccc(F)cc2)C(Cl)(Cl)Cl)ncn1 (stereo not given),inactive: -0.841%
17,Cc1ccc(NP(=O)(Oc2ccccc2F)Oc2ccccc2F)nc1,inactive: -0.703%
18,CN(C(=O)Cc1ccc(Cl)c(Cl)c1)[C@H]1CCCC[C@@H]1N1CCCC1,inactive: -0.25%
19,O=C(O)c1ccccc1[As](=O)(O)O,inactive: 0.482%
20,CC(=O)Nc1ccc([As](=O)(O)O)cc1,inactive: 0.177%
21,O=P(Nc1nc2ccc(Cl)cc2s1)(c1ccccc1)c1ccccc1,inactive: -0.642%
22,Cc1ccccc1OP(=O)(Nc1ccccn1)Oc1ccccc1C,inactive: -0.894%
23,CC(NC(=O)COC(=O)C(O)(c1ccccc1)c1ccccc1)c1ccccc1 (stereo not given),inactive: 0.492%
24,CN(C)C(=O)Oc1noc2ccccc12,inactive: -1.52%
25,COC(=O)c1cc2c(s1)N=C(c1ccccc1)N(C)P2(=O)N1CCOCC1 (stereo not given),inactive: 0.296%
26,Cc1ccc(OP(=O)(Nc2ccccn2)Oc2ccc(C)cc2)cc1,inactive: 0.944%
27,CC(=O)NC(SC(=S)N(CC(C)C)CC(C)C)C(Cl)(Cl)Cl (stereo not given),inactive: 3.67%
28,O=C(OC1CN2CCC1CC2)c1ccccc1 (stereo not given),inactive: -0.219%

row,Compound,activation
1,CCC(=O)N1C2C3N(C(=O)CC)C1C1N(C(=O)CC)C(C(N1C(=O)CC)N3C(=O)CC)N2C(=O)CC,inactive: -4.35%
2,CCNC(=S)/N=C(\N)N[N+](=O)[O-],inactive: -0.15%
3,O=C(NC1CCS(=O)(=O)C1)NP(=S)(Oc1ccccc1)Oc1ccccc1 (stereo not given),inactive: 0.848%
4,c1ccc(-c2nn[nH]n2)c(-c2nn[nH]n2)c1,inactive: -1.1%
5,CCOC(=O)NC(Sc1ccccc1)C(Cl)(Cl)Cl (stereo not given),inactive: 3.07%
6,Cc1ccc(NP(=O)(Oc2cccc(C)c2)Oc2cccc(C)c2)nc1,inactive: -1.58%
7,CC(=O)Nc1ccc([As](=O)(O)O)c(O)c1,inactive: -1.65%
8,CC(=O)Nc1ccc(Oc2c([N+](=O)[O-])cc([N+](=O)[O-])cc2[N+](=O)[O-])cc1,inactive: 0.554%
9,CC(=O)c1ccc(N2CC2c2ccncc2)cc1 (stereo not given),inactive: 3.41%
10,Cc1ccccc1CN(C)C(=O)COC(=O)C(O)(c1ccccc1)c1ccccc1,inactive: 0.299%
11,C[C@@H]1C=CCP(=O)(Oc2ccccc2)O1 (stereo not given in full),inactive: 0.693%
12,C[C@H]1OP(=O)(Oc2ccccc2)C[C@@H]2O[C@@H]21 (stereo not given in full),inactive: -2.17%
13,CC(C)(C)C(=O)NC(Sc1ccccc1)C(Cl)(Cl)Cl (stereo not given),inactive: -1.38%
14,O=P1(Nc2nc3ccc(Cl)cc3s2)COc2ccccc2O1 (stereo not given),inactive: 0.135%
15,CCOc1ccc(C2=NCC(CBr)S2)cc1 (stereo not given),inactive: 0.744%
16,c1nnnn1CCn1cnnn1,inactive: -1.51%
17,CC(C)C(=O)NC(Sc1ccccc1)C(Cl)(Cl)Cl (stereo not given),inactive: 1.43%
18,O=P(Nc1nccs1)(c1ccccc1)c1ccccc1,inactive: -0.0746%
19,Nc1ccc([As](=O)(O)c2ccc([N+](=O)[O-])cc2)cc1,inactive: 1.32%
20,C(Cc1nn[nH]n1)Cc1nn[nH]n1,inactive: -0.641%
21,O=C(OC1CN2CCC1CC2)c1cccc(Cl)c1 (stereo not given),inactive: 0.188%
22,O=[N+]([O-])c1ncn(CCn2cnc([N+](=O)[O-])n2)n1,inactive: 1.43%
23,O=[As](O)(c1ccccc1)c1ccc(O)cc1,inactive: -0.846%
24,O=P(Nc1nc2ccccc2s1)(c1ccccc1)c1ccccc1,inactive: 1.67%
25,C[C@H]1OP(=O)(Oc2ccccc2)[C@H](O)[C@H](O)[C@H]1N=[N+]=[N-] (stereo not given in full),inactive: -1.43%
26,O=P(Nc1ccccn1)(c1ccc(Br)cc1)c1ccc(Br)cc1,inactive: 0.464%
27,CN(C)C1(CNC(=O)c2ccc(Cl)c(S(N)(=O)=O)c2)CCCCC1,inactive: 0.469%

# From PubChem BioAssay AID449763 (Sanford-Burnham Center for Chemical Genomics, 2010)
